In PMC8348200, “Selective Antifungal Activity and Fungal Biofilm Inhibition of Tryptophan Center Symmetrical Short Peptide” (International Journal of Molecular Sciences, 2021):

What was measured:
E. coli 25922 = assay type: cell-based, Escherichia coli; conditions: MHB, 37 °C 24 h, peptides 0.5-128 μM; lowest concentration inhibiting 95% of growth; three independent experiments
Protocol: (§1) The peptide antimicrobial activity was determined according to the Clinical and Laboratory Standards Institute method, with modifications. Bacteria concentration was measured by ultraviolet spectrophotometer, and fungi concentration was confirmed by McMillan’s turbidimetric method, which compared the fungi solution with the standard McFarland tube in front of the horizontal line on the paper with the naked eye. Because the light has different refract in different liquids. The standard solution is composed of sulfuric acid and barium chloride, which is equivalent to 1*10^8 CFU fungi. After cultivation, the growth of fungi and bacteria was measured by TECAN automatic enzyme label instrument. Briefly, bacterial cells were cultured in MHB until logarithmic phase, yeast colonies cultured in Yeast Peptone Dextrose Agar (YPDA) were picked and diluted in RPMI 1640 growth medium buffered with morpholine propane sulfonic acid (MOPS), and then 50 μL of bacterial or fungi cell solution (0.5–1 × 10^4 CFU/mL) was added to each well of sterile 96-well plates. Each well contained 50 μL of AMPs dissolved in BSA; the final concentrations of the peptides ranged from 0.5 to 128 μM. The lowest concentration of peptide with no microbial growth being observed were measured after incubation at 37 °C for 24 h for bacteria or at 28 °C for 48 h for fungi. […]

E. coli UB1005 = assay type: cell-based, Escherichia coli; conditions: MHB, 37 °C 24 h, peptides 0.5-128 μM; lowest concentration inhibiting 95% of growth; three independent experiments
Protocol: as §1

CC[C@H](C)[C@H](NC(=O)CN)C(=O)NCC(=O)N[C@@H](C)C(=O)N[C@H](C(=O)N[C@@H](CC(C)C)C(=O)N[C@@H](CCCCN)C(=O)N[C@H](C(=O)N[C@@H](CC(C)C)C(=O)N[C@H](C(=O)N[C@H](C(=O)NCC(=O)N[C@@H](CC(C)C)C(=O)N1CCC[C@H]1C(=O)N[C@@H](C)C(=O)N[C@@H](CC(C)C)C(=O)N[C@H](C(=O)N[C@@H](CO)C(=O)N[C@@H](Cc1c[nH]c2ccccc12)C(=O)N[C@H](C(=O)N[C@@H](CCCCN)C(=O)N[C@@H](CCCNC(=N)N)C(=O)N[C@@H](CCCCN)C(=O)N[C@@H](CCCNC(=N)N)C(=O)N[C@@H](CCC(N)=O)C(=O)N[C@@H](CCC(N)=O)C(N)=O)[C@@H](C)CC)[C@@H](C)CC)[C@@H](C)O)[C@@H](C)O)C(C)C)C(C)C [Melittin, reference compound]
MICs, E. coli 25922 (E. coli 25922): 2 µM | MICs, E. coli UB1005 (E. coli UB1005): 2 µM
